Reference: ChEMBL document CHEMBL5725611, “N-substituted benzamides and methods of use thereof” (2018)
pIC50: −log10 of the molar value.

Protein sequences, listed by entry. Tags and fused reporters are not part of them.
UniProt Q15858, whole entry: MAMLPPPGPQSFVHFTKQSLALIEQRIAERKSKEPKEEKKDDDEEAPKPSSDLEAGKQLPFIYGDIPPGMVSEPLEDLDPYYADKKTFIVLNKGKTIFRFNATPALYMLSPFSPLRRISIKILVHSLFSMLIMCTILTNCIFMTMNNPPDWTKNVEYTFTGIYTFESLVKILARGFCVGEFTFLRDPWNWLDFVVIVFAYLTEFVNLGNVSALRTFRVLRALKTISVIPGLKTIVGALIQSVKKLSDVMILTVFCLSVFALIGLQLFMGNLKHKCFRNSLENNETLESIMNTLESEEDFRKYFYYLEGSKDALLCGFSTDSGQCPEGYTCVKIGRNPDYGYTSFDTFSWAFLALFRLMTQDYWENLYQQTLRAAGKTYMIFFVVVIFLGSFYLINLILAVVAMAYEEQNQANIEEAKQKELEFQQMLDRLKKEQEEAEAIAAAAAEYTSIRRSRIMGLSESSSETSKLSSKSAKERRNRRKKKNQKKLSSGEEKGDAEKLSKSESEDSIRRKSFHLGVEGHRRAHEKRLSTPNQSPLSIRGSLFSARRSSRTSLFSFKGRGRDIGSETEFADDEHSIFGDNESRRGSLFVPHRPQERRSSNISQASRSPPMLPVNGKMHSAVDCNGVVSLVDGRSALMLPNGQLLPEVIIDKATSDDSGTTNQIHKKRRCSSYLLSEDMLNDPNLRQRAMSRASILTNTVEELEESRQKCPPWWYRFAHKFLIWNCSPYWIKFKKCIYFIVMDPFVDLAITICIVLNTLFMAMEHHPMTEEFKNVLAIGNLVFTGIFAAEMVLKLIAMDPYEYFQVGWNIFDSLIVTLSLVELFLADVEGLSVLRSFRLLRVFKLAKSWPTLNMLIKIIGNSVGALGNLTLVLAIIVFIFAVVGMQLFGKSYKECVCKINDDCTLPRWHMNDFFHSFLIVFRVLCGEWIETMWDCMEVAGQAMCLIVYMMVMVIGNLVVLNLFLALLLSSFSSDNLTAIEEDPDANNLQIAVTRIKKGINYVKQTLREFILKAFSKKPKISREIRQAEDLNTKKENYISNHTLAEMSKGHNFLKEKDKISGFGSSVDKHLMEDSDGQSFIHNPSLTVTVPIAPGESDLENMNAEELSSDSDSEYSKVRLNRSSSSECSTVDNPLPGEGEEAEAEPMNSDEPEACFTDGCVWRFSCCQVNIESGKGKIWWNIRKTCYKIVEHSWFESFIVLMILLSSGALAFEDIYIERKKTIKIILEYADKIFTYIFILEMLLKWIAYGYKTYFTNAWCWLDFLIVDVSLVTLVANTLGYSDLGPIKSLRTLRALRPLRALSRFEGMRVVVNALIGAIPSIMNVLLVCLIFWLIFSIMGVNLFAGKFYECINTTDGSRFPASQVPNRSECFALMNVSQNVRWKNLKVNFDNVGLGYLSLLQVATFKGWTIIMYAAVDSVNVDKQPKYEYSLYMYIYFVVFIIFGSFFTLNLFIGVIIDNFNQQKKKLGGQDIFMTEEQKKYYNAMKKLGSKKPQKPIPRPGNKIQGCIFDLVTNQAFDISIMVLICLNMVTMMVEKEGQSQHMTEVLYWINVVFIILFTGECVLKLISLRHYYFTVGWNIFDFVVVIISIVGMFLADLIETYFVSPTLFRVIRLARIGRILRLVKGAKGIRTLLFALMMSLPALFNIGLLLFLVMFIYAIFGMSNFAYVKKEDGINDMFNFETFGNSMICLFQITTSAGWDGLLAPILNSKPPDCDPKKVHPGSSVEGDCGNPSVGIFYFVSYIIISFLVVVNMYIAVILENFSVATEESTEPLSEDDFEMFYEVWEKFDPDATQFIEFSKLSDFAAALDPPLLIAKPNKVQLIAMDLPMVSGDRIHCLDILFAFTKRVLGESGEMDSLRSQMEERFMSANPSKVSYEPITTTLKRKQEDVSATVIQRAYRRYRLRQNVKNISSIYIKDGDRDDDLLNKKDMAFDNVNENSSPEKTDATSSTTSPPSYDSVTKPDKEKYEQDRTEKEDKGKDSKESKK

Columns and labels:
[1] = biological target: T1, Sodium channel protein type 9 subunit alpha (Homo sapiens, UniProt Q15858); assay: Binding Assay: Preparation of membranes containing recombinantly expressed sodium channels: Frozen recombinant cell pellets were thawed on ice and diluted to 4 times the cell pellet weight with ice cold 50 mM Tris HCl, pH 7.4 buffer. The cell suspensions were homogenized on ice using a motorized glass dounce homogeniser. […] The supernatants were collected and centrifuged at 10000×g at 4° C. for 50 min. The pellets were then re-suspended in 100 mM NaCl, 20 mM Tris HCl, pH 7.4 buffer containing 1% v/v protease inhibitors (Calbiochem) and re-homogenized on ice. The homogenized membranes were then processed through a syringe equipped with a 26 gauge needle. Protein concentrations were determined by Bradford Assay and the membranes were stored at −80° C.Radioligand Binding Studies: Saturation experiments. A representative compound of formula (I) was tritiated. Three tritiums were incorporated in place of methyl hydrogens to generate [3H]compound. Binding of this radioligand was performed in 5 mL borosilicate glass test tubes at room temperature. Binding was initiated by adding membranes to increasing concentrations of [3H]compound in 100 mM NaCl, 20 mM Tris HCl, pH 7.4 buffer containing 0.01% w/v bovine serum albumin (BSA) for 18 h. Non-specific binding was determined in the presence of 1 μM unlabelled compound. […]
[2] = biological target: T1, Sodium channel protein type 9 subunit alpha; assay: Electrophysiological Assay (In Vitro Assay): Patch voltage clamp electrophysiology allows for the direct measurement and quantification of block of voltage-gated sodium channels (NaV's), and allows the determination of the time- and voltage-dependence of block which has been interpreted as differential binding to the resting, open, and inactivated states of the sodium channel (Hille, B., Journal of General Physiology (1977), 69: 497-515).The following patch voltage clamp electrophysiology studies were performed on representative compounds of the invention using human embryonic kidney cells (HEK), permanently transfected with an expression vector containing the full-length cDNA coding for the desired human sodium channel α-subunit, grown in culture media containing 10% FBS, 1% PSG, and 0.5 mg/mL G418 at 37° C. with 5% CO2. […] NaV1.7 and NaV1.5 cDNAs (NM_002977 and AC137587; SCN5A, respectively) were stably expressed in HEK-293 cells. The β1 subunit was coexpressed in both the NaV1.7 and NaV1.5 cell lines.Sodium currents were measured using the patch clamp technique in the whole-cell configuration using either a PatchXpress automated voltage clamp or manually using an Axopatch 200B (Axon Instruments) or Model 2400 (A-M systems) amplifier. […]; type: cell-based

pIC50 [1]: 5.80
Structure (SMILES): COC(=O)C1CCN(S(=O)(=O)NC(=O)c2cc(Cl)c(Oc3cnc(OCC(C)C)c(Cl)c3)cc2F)CC1
pIC50 [2]: 6.66
